{
  "source": "PubChem BioAssay AID463212",
  "about": "(Sanford-Burnham Center for Chemical Genomics, 2010)",
  "note": "Only a part is listed here, and it is no random draw. The source made the active and inactive calls.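 How the source made its calls: active means growth inhibition of the mutant yeast at or above 50%; inactive means the rest.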",
  "data": [
    {"experiment": "growth inhibition of tim23-1 ts yeast – luminescence, uHTS, primary screen (AID 463212);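 further: temperature-sensitive mutant grown at 25 °C; plate controls were DMSO-treated mutant yeast for no effect and medium wells lacking yeast for full effect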", "settings": "S. cerevisiae tim23-1 growth, BacTiter-Glo luminescence, 24 h; at 20 µM; hits give high values", "values": [
      {"smiles": "CCC(=O)N(c1ccccc1)C1(COC)CCN(CCc2cccs2)CC1", "inhibition": "inactive: 11.9%"},
      {"smiles": "CCC(=O)N(c1ccccc1)C1(COC)CCN(CCn2nnn(CC)c2=O)CC1", "inhibition": "inactive: -4.04%"}
    ]}
  ]
}
